Measurements as given in paper PMC7465369.
pKd: −log10 of the molar value.

Experiments:
[1] = biological target: human 8-oxoguanine–DNA glycosylase (OGG1) (human) (UniProt O15527)
[2] = biological target: human 8-oxoguanine–DNA glycosylase (OGG1) (human) (UniProt O15527); experiment: MST; 30 nM His6-OGG1 labeled with red Tris-NTA dye, titrated with unlabeled POLβ; 100 mM Tris-HCl pH 7.5, 10 mM MgCl2, 1% glycerol; Monolith NT.115; one-site-binding model

Substance | enhancement of OGG1 turnover (cleavage of the labeled secondary substrate, two-substrate displacement assay), 10 nM POLβ, OGG1 on the template or the downstream strand [1] [fold] | pKd [2]
rat DNA polymerase β (POLβ) (from UniProt P06766 1-335) (enzyme) | > 2 | –
rat DNA polymerase β (POLβ) (from UniProt P06766 1-335) (enzyme; other documents disagree on this pair) | – | 6.24
